# Antibody variant affinities, Ab-14 heavy chain, assay 1

Binding partner: SARS-CoV-2 spike HR2 peptide, sequence PDVDLGDISGINAS.

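The parent was found by panning a naive human phage display library on the peptide. AAYL49 was designed without a model: most single CDR substitutions and a random sample of double and triple ones. Affinity was read by AlphaSeq, a pooled yeast mating assay with surface-displayed partners. Mating (16 h, 30 °C) was followed by selection of diploids and sequencing of their barcodes. Scores were corrected for input abundance and mapped to Kd with protein pairs of known affinity run in the same pool. There are three technical replicates.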

Ab-14 is the parent antibody, in scFv form: VH, then three GGGGS repeats, then VL. The light chain is unchanged in all variants.
VH: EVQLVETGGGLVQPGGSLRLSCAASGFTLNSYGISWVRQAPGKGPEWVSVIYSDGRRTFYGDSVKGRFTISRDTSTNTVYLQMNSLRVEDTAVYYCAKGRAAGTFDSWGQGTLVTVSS
VL: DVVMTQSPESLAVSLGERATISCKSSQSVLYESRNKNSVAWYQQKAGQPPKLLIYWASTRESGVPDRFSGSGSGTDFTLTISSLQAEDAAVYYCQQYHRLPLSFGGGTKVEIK

Variants are written as CDR1, CDR2 and CDR3 of the heavy chain (limits as in the source). Parent: GFTLNSYGIS, VIYSDGRRTFYGDSVK, GRAAGTFDS.
Values are apparent Kd, the geometric mean of the replicates that gave a signal; lower means stronger binding.
Where no diploid with the target was found in any replicate, the entry reads "no signal": below detection, most likely a poor binder, though not proof of it.
Nonspecific signal, from three strains lacking the peptide, appeared in 15% of pairings of library AAYL49, centred on 11 µM (5% of these signals below 680 nM); values are not corrected for it. For each scFv, signals with the empty controls are counted beside the result.

CDR-H1	CDR-H2	CDR-H3	apparent Kd	seen in	control signals
GFTLNSYGIS	VIYSVGRRTFDGDSVK	GRAAGTMDS	8.2 µM	2/3	1/9
GFTLNSYGIS	MEYSDGRRTFYSDSVK	GRAAGTFDS	97 µM	3/3	2/9
GFTLNSYGIS	VIYSDGNRTHYADSVK	GRAAGTFDS	14 nM	3/3	4/9
NFTLNSYGPS	VIYSDGRRTFYGDSVK	GRAAGTFQS	37 µM	3/3	6/9
GFTLNSYGIS	VIVSDGRRTFYFDSKK	GRAAGTFDS	3.1 µM	1/3	3/9
GFTLNSYGIS	VIYSDGRRTFYVDSVK	GRYAGTFSS	8.1 nM	3/3	0/9
GFTLNSYGIS	VIYSDSRRTFYGDSVK	KRAAGTFDA	no signal	0/3	0/9
GFTLNSYGIS	VIYVDGRREEYGDSVK	GRAAGTFDS	140 µM	1/3	3/9
GFTLNSYGIS	VIYGDGRRTFYGDSVK	GRAAGAPDS	no signal	0/3	0/9
GFTHNSYGIS	VIYSDGRRTFDGDSVK	GRMAGTFDS	no signal	0/3	1/9
GFTLDSYGIG	VIYSDGRRTFYGDSVK	GRNAGTFDS	13 µM	3/3	4/9
GFTLNSYGIS	VIYSDGRWTFYGDSMK	GDAAGTFDS	no signal	0/3	2/9
GFTLNSYGIS	VIYSMGRREFYGDSVK	WRAAGTFDS	6.7 µM	2/3	2/9
GFTLNSYGIS	VIYSDGRRTFYQDSVK	RRAAGTFDS	250 nM	3/3	1/9
GFTLNSYGIS	VIYSDGRRVFYGDSGK	GRANGTFDS	1.5 µM	3/3	0/9
GFTLNSYGIS	VKESDGRRTFYGDSVK	GRAAMTFDS	21 µM	3/3	4/9
GFTLNSYGIS	VIYSDGRRTFYGDSVK	IRATGTFDE	2.8 µM	1/3	1/9
RFTYNSYGIS	VIYSGGRRTFYGDSVK	GRAAGTFDS	no signal	0/3	0/9
GFWWNSYGIS	VIYSDGRRTFYGDSVK	GRAAGTFFS	no signal	0/3	1/9
IFTLNSYGIS	VIYSDGRRTFYIDPVK	GRAAGTFDS	13 µM	3/3	1/9
GFTSESYGIS	VIQSDGRRTFYGDSVK	GRAAGTFDS	28 µM	2/3	3/9
GFTLNSYGIS	VIKSDGRRPFYGDSVK	GYAAGTFDS	no signal	0/3	0/9
GFGLNSYGIK	VIYVDGRRTFYGDSVK	GRAAGTFDS	no signal	0/3	0/9
GFTLNSYGIS	VQYEDGRRTFYGDSVK	GRAAGTFDC	76 µM	2/3	2/9
GFTLNSYAIS	GIYSDGRRTFWGDSVK	GRAAGTFDS	no signal	0/3	1/9
GFLLNSYGIS	VIYSDGWRTFYGDSVM	GRAAGTFDS	310 nM	3/3	0/9
GFTLNSYGGL	VIYSDGRRTFYGDIVK	GRAAGTFDS	3.9 µM	1/3	0/9
GFTLGSYGIS	VIYSWGRRTFYGDSVK	GRAAVTFDS	no signal	0/3	0/9
GFTLNSYGIG	VIYSDGRQTFYGDSRK	GRAAGTFDS	31 µM	2/3	4/9
GFTLNSYGIS	VIHCDGRRTFYGSSVK	GRAAGTFDS	no signal	0/3	0/9
GFTLNSYGIS	VFYSDGRRTFYHDSHK	GRAAGTFDS	110 µM	1/3	1/9
GFTLNSYGFS	WIYSDGRRTFYGDSVK	GNAAGTFDS	no signal	0/3	1/9
GFTLNSYFIS	VIYSDGRYMFYGDSVK	GRAAGTFDS	410 nM	1/3	0/9
GFTLNSYGIS	VIYSDGIRTFYLDSVK	GRAAGTFFS	640 µM	1/3	4/9
GFTLNSYGIS	VIYSDGRRTKSGDSVK	GRAAGTFDW	no signal	0/3	0/9
KFTLNSYGIS	VIYSDGRRTFYGDSVK	GRHAGTFDC	15 µM	3/3	1/9
GFTLNSYGIS	VIYSDGRRDFYGDSVK	GRAAGTFDK	no signal	0/3	0/9
GHTLNSYGIS	NIYSDGRRTFPGDSVK	GRAAGTFDS	4.6 µM	1/3	0/9
GFTLNSYGIS	VINSDGRRTFYGDSVK	GRAAKTFDS	no signal	0/3	0/9
GFTLNSYGIS	VIYTDGRRTFYGDSVK	GRAAVTADS	11 µM	2/3	1/9
GFTLNSYGIS	VIYSDGRPTIYGDSVK	GRAPGTFDS	4.2 µM	1/3	1/9
GFTLNSYPIS	VIYSDGRRTFYEDSVK	GDAAGTFDS	1.1 µM	1/3	0/9
GFTLNSYGIS	VIYNDGRRTFYEDSVK	GRQAGTFDS	620 nM	3/3	3/9
GFTLNSYGIP	VIYSDGDRTFYGDSVK	GRAAGTFWS	no signal	0/3	0/9
GTTLHSCGIS	VIYSDGRRTFYGDSVK	GRAAGTFDS	no signal	0/3	1/9
GFTLNSYGKS	VIYSDGRRTFYGDSVK	GRAAETFDS	630 nM	1/3	1/9
GFTLNSYGIS	VIYSSCRRTFYGDSVK	GDAAGTFDS	no signal	0/3	0/9
GFTLNSYGIS	VHYSDGRRCFCGDSVK	GRAAGTFDS	5.1 µM	1/3	3/9
GFTLNSYGIS	VISSDGRYTFYGDSVK	GRAAGTFDS	no signal	0/3	0/9
GFTLNSYGIS	VNYSDGRRKFYGDSSK	GRAAGTFDS	730 µM	1/3	2/9
GFHLNNYGIS	VIYSDGRRTFYGDGVK	GRAAGTFDS	64 nM	3/3	2/9
GFTLNSYRIS	VILSDGRRTFWGDSVK	GRAAGTFDS	no signal	0/3	1/9
GFTWSSYGIS	VIYSDGRRTFYGDSVK	GRMAGTFDS	2.0 µM	2/3	0/9
GFTLNSYGIS	VILSDGRRTFYGDSWK	GRAAGTFDS	850 nM	1/3	2/9
GFTLNSYGIN	VIYSYGRRTFYGDSVK	GRAAGTEDS	no signal	0/3	0/9
GFTLTSYGIS	VIYSDGRRTFYQDSVK	GRAAGTFDS	4.1 nM	3/3	0/9
QFTLNSYGIS	VIYSDGRRTFYGDSVK	GCAAGLFDS	no signal	0/3	0/9
GVTLNSYGIS	VIYSDGRRTFYGDSVK	GRAAGTFPL	no signal	0/3	0/9
GFTLNSYGIS	VWYSDGRKTFYGDSVK	GRAKGTFDS	no signal	0/3	0/9
GFTLTSYGIS	VIYFYGRRTFYGDSVK	GRAAGTFDS	1.4 µM	1/3	3/9
GFTLNSYGIS	VIYSDGRRTFYGDDVK	TRAAGTFPS	2.8 nM	3/3	1/9
GFTLNSYGIS	VIYSDGRRTFYSDSFK	GRAAGTFDM	380 nM	3/3	1/9
GFTLNSYGIS	VIYSDGRRTFYGDSPS	GRAAGTFTS	no signal	0/3	0/9
GHTLNSYGIS	VIYSDGRRTFYGFSVK	GREAGTFDS	420 nM	3/3	0/9
KRTLNMYGIS	VIYSDGRRTFYGDSVK	GRAAGTFDS	no signal	0/3	0/9
GFTLNSNGIS	VPYSDGRRTFYGDVVK	GRAAGTFDS	49 µM	1/3	1/9
GFTLNSYAIS	VIYCDGRRTFCGDSVK	GRAAGTFDS	1.7 µM	1/3	1/9
GFTLNSYGIS	VITSSGRRTFYGDGVK	GRAAGTFDS	76 µM	2/3	4/9
GFTLISYGHS	VIYSDGLRTFYGDSVK	GRAAGTFDS	1.5 µM	2/3	0/9
GFTLNSYGIS	INYSDGRRTFYGDSVK	GRAAGPFDS	880 nM	2/3	0/9
GFTLNSYGIS	VIHSDGRRTFTRDSVK	GRAAGTFDS	71 µM	2/3	6/9
GFTLNSYGIS	VIFSDGRRTFYGDSVE	GRAATTFDS	no signal	0/3	0/9
GFTLNSSGID	VIYSDGRRTFYWDSVK	GRAAGTFDS	no signal	0/3	0/9

The opening 12 entries, copied out:

CDR-H1	CDR-H2	CDR-H3	apparent Kd	seen in	control signals
GFTLNSYGIS	VIYSVGRRTFDGDSVK	GRAAGTMDS	8.2 µM	2/3	1/9
GFTLNSYGIS	MEYSDGRRTFYSDSVK	GRAAGTFDS	97 µM	3/3	2/9
GFTLNSYGIS	VIYSDGNRTHYADSVK	GRAAGTFDS	14 nM	3/3	4/9
NFTLNSYGPS	VIYSDGRRTFYGDSVK	GRAAGTFQS	37 µM	3/3	6/9
GFTLNSYGIS	VIVSDGRRTFYFDSKK	GRAAGTFDS	3.1 µM	1/3	3/9
GFTLNSYGIS	VIYSDGRRTFYVDSVK	GRYAGTFSS	8.1 nM	3/3	0/9
GFTLNSYGIS	VIYSDSRRTFYGDSVK	KRAAGTFDA	no signal	0/3	0/9
GFTLNSYGIS	VIYVDGRREEYGDSVK	GRAAGTFDS	140 µM	1/3	3/9
GFTLNSYGIS	VIYGDGRRTFYGDSVK	GRAAGAPDS	no signal	0/3	0/9
GFTHNSYGIS	VIYSDGRRTFDGDSVK	GRMAGTFDS	no signal	0/3	1/9
GFTLDSYGIG	VIYSDGRRTFYGDSVK	GRNAGTFDS	13 µM	3/3	4/9
GFTLNSYGIS	VIYSDGRWTFYGDSMK	GDAAGTFDS	no signal	0/3	2/9

Source: Engelhart et al. 2022 (doi:10.1038/s41597-022-01779-4), MIT Lincoln Laboratory and A-Alpha Bio; data file from the FLAb repository.